Reference: PubChem BioAssay (Tox21)
Values joined by “and” are separate entries in the source; they are usually repeats but may differ in a detail not shown here. Equal entries are not always repeated. The list shows a part of the results, in another mix than the full data. Inconclusive results are not listed. Active and inactive are the calls of the source. Unless noted, calls come from the whole dose curve; as a rule, active = well fitted curve in the direction sought with a large enough effect in the repeat runs; inconclusive = weak or mixed curves; inactive = no such curve, though single readings can be large; an effect the other way counts as inactive or inconclusive.

Chains of the proteins cited; added tags and fusions are not shown.
UniProt P19793, whole entry: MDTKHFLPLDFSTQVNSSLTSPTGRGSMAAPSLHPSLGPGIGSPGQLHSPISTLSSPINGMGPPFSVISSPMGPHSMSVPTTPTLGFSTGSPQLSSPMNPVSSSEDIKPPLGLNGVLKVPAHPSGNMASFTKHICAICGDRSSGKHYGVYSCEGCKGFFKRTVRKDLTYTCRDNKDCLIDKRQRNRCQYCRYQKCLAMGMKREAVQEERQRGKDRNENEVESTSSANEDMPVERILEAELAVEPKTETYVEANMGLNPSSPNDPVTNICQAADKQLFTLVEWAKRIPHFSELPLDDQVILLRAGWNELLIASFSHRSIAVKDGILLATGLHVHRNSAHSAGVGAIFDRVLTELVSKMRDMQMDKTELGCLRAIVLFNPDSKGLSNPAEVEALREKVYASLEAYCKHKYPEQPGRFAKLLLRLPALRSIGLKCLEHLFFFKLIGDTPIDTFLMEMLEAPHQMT
UniProt Q14994, whole entry: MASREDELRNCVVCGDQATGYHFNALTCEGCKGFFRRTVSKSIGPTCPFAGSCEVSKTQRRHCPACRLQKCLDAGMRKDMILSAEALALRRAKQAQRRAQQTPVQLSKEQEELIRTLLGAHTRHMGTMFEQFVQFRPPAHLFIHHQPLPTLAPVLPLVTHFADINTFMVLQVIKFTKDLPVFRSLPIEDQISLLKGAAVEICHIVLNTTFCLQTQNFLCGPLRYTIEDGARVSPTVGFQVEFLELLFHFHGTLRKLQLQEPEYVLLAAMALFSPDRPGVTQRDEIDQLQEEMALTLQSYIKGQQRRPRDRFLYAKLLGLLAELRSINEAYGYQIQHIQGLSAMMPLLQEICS

Experiments:
[1] = qHTS assay to identify small molecule antagonists of the vitamin D receptor (VDR) signaling pathway - cell viability counter screen (AID 743225); settings: VDR-bla HEK293T viability, CellTiter-Glo luminescence, 16 h; note: nearly all actives have a fitted effect of over 50% in size
Method in brief: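 Parallel cytotoxicity test: VDR-UAS-bla HEK 293T, 3 nM (final) 1-alpha,25-dihydroxyvitamin D3 with test compound, 16 h, 37C. Endpoint is CellTiter-Glo luminescence in the same wells.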

[2] = qHTS assay to identify small molecule agonists of the NFkB signaling pathway - cell viability counter screen (AID 1159515; calls by dose curve; note: nearly all actives have a fitted effect of over 55% in size); settings: NFkB-bla ME-180 viability, CellTiter-Glo luminescence, 5 h
Method in brief: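 Tox21 library compounds were tested for cytotoxicity against NFkB-bla ME-180 cells during a 5 hr exposure at 37 C. CellTiter-Glo luminescence served as the viability read-out.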

[3] = qHTS assay to identify small molecule agonists of the endoplasmic reticulum stress response signaling pathway - cell viability counter screen (AID 1159517; calls by dose curve;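 note: HeLa cells carrying an ER stress response element beta-lactamase reporter; nearly all actives have a fitted effect of over 50% in size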); settings: ESRE-bla HeLa viability, CellTiter-Glo luminescence, 5 h; at 61 µM (top of the series)
Method in brief: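 After overnight attachment, ESRE-bla HeLa cells were treated with Tox21 library compounds for 5 hr. CellTiter-Glo luminescence, read 30 min post-addition at room temperature, reported viability.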

[4] = qHTS assay to identify small molecule antagonists of the retinoid-related orphan receptor gamma (ROR-gamma) signaling pathway - cell viability counter screen (AID 1159520); settings: Tet-on RORgamma CHO cells viability, ATP luminescence, 16 h; at 92.4 µM (top of the series) unless noted; note: nearly all actives have a fitted effect of over 50% in size
Method in brief: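 Cytotoxicity was read from cellular ATP (CellTiter-Glo luminescence) after 16 hr at 37 C with 1 uM doxycycline induction. The inducer was added 2 hr after compound transfer to Tet-on ROR gamma CHO cells.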

[5] = qHTS assay to identify small molecule agonists of the AP-1 signaling pathway (AID 1159526; calls by dose curve); settings: ME-180 (cervical carcinoma) AP-1-bla reporter, beta-lactamase FRET ratio, 5 h; at 76.8 µM (top of the series)
[6] = target: Retinoic acid receptor RXR-alpha (Homo sapiens) (UniProt P19793); assay: qHTS assay to identify small molecule agonists of the RXR signaling pathway (AID 1159527; calls by dose curve; note: nearly all actives have a fitted effect of over 35% in size); settings: HEK293T RXRa-UAS-bla, beta-lactamase ratio, 16 h; series mostly up to 76.8 µM
Method in brief: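 16 hr incubation of compound-treated RXR-alpha-UAS-bla HEK 293T cells (2% charcoal-stripped FBS, 37 C) preceded a 2 hr room-temperature LiveBLAzer FRET substrate step and blue/green fluorescence measurement.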

[7] = qHTS assay to identify small molecule antagonists of the retinoid acid receptor (RAR) signaling pathway - cell viability counter screen (AID 1159551); settings: C3RL4 cells viability, ATP luminescence (CellTiter-Glo), 6 h; at 92.4 µM (top of the series) unless noted; note: nearly all actives have a fitted effect of over 35% in size
Method in brief: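 In this counter screen, the RARE-luciferase line C3RL4 was exposed for 6 h at 37 C and 5% CO2 to compounds with retinol at 1 uM final. Cellular ATP, read by luminescence, served as the viability measure.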

[8] = qHTS assay to identify small molecule antagonists of the retinoic acid receptor (RAR) signaling pathway (AID 1159552; note: nearly all actives have a fitted effect of over 50% in size); settings: C3RL4 RARE luciferase reporter, retinol-stimulated, 6 h; at 92.4 µM (top of the series)
Method in brief: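 C3RL4 RARE-luc cells, overnight plating; retinol 1 uM final added right after compound; 6 hr 37 C; luciferase read at 30 min RT.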

[9] = qHTS assay to identify small molecule agonists of the retinoic acid receptor (RAR) signaling pathway (AID 1159553); settings: C3RL4 RARE luciferase reporter, agonist, 6 h
Method in brief: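 In this cell-based screen, 1,000 C3RL4 cells per well were cultured overnight, dosed with test chemicals in DMSO for 6 hr, and assessed for RARE luciferase luminescence.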

[10] = qHTS assay to identify small molecule antagonists of the estrogen related receptor (ERR) signaling pathway from Tox21 library - cell viability counter screen (AID 1224834); settings: ERR reporter cells viability, CellTiter-Fluor, 17.5 h; at 92.4 µM (top of the series); note: nearly all actives have a fitted effect of over 30% in size
Method in brief: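 Counter screen run in ERR cells (2,000 cells/well): cells pre-incubated 6 h, then treated with compounds for 17.5 h at 37 C. Fluorescence was read 30 min after CellTiter-Fluor addition.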

[11] = qHTS assay to identify small molecule agonists of the constitutive androstane receptor (CAR) signaling pathway - cell viability counter screen (AID 1224836); settings: HepG2-CYP2B6-hCAR viability, CellTiter-Fluor, 23 h; at 92.4 µM (top of the series); PK11195 added to every well; note: nearly all actives have a fitted effect of over 45% in size
Method in brief: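 Using CellTiter-Fluor, viability of HepG2 cells harbouring hCAR and CYP2B6-2.2kb was measured following 23 h incubation with a 15-concentration compound series plus PK11195 (0.75 uM final).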

[12] = qHTS assay to identify small molecule antagonists of the constitutive androstane receptor (CAR) signaling pathway - cell viability counter screen (AID 1224837); settings: HepG2-CYP2B6-hCAR viability, CellTiter-Fluor, 23 h, co-treated with 50 nM CITCO; at 92.4 µM (top of the series) unless noted; note: nearly all actives have a fitted effect of over 45% in size
Method in brief: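 CITCO at 50 nM final was added alongside compounds (15 concentrations) to double-stable hCAR/CYP2B6-2.2kb HepG2 cells. Following 23 hr at 37 C, cell viability was quantified by CellTiter-Fluor fluorescence intensity.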

[13] = target: Nuclear receptor ROR-gamma (Homo sapiens) (UniProt P51449); assay: qHTS assay to identify small molecule antagonists of the retinoid-related orphan receptor gamma (ROR-gamma) signaling pathway (AID 1159521); settings: Tet-on RORgamma CHO cells, RORE-luciferase, 16 h; at 92.4 µM (top of the series)
[14] = target: Nuclear receptor subfamily 1 group I member 3 (Homo sapiens) (UniProt Q14994); assay: qHTS assay to identify small molecule antagonists of the constitutive androstane receptor (CAR) signaling pathway (AID 1224838); settings: HepG2-CYP2B6-hCAR luciferase, CITCO-stimulated, 24 h; at 92.4 µM (top of the series);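 note: HepG2 cells stably expressing hCAR with CYP2B6 luciferase reporter stimulated by CITCO; nearly all actives have a fitted effect of over 40% in size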
[15] = qHTS assay to identify small molecule antagonists of the estrogen related receptor (ERR) signaling pathway - cell viability counter screen (AID 1224818); settings: ERR reporter cell line viability counter screen; at 92.2 µM (top of the series)
Method in brief: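 Viability of ERR cells, CellTiter-Fluor fluorescence; 17.5 h compound exposure at 37 C, DMSO vehicle; 30 min reagent incubation at 37 C/5% CO2.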

[16] = qHTS assay to identify small molecule antagonists of the estrogen related receptor (ERR) signaling pathway (AID 1224819); settings: ERR reporter cell line, luciferase inhibition; at 92.2 µM (top of the series)
Method in brief: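 Seed ERR cells 2,000/well; rest 6 h at 37 C/5% CO2; pin compounds in DMSO; incubate 18 h at 37 C; add One-Glo; wait 30 min at room temperature; measure luminescence.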

[17] = qHTS assay to identify small molecule agonists of the estrogen related receptor (ERR) signaling pathway (AID 1224820); settings: ERR reporter cell line, luciferase agonist mode; at 92.2 µM (top of the series)
Method in brief: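 Following a 6 h settling period, 2,000 ERR cells per well receive DMSO-dissolved compounds by pin tool and incubate 18 h at 37 C; agonist activity is scored from One-Glo luminescence read 30 min post-addition.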

[18] = system: estrogen-related receptor alpha (ERRalpha) with PGC-1alpha coactivator, human; assay: qHTS assay to identify small molecule antagonists of the estrogen related receptor signaling pathway with the pleiotropic PPARgamma coactivator (PGC) (AID 1224821; calls by dose curve); settings: ERR/PGC reporter cell line, luciferase, antagonist mode; at 92.2 µM (top of the series)
Method in brief: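 Screening used NTP's PGC/ERR cells, dosed via pin tool with compound in DMSO alongside positive and negative controls. After 18 h at 37 C, One-Glo reagent sat 30 min at room temperature before luminescence detection.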

[19] = qHTS assay to identify small molecule antagonists of the estrogen related receptor signaling pathway with the pleiotropic PPARgamma coactivator (PGC) cell viability counter screen (AID 1224822); settings: ERR/PGC reporter cell line viability counter screen; at 92.2 µM (top of the series)
Method in brief: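 17.5 h compound treatment of PGC/ERR cells at 37 C; readout CellTiter-Fluor fluorescence; run alongside the PGC/ERR antagonist screen to flag cytotoxic compounds.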

[20] = qHTS assay to identify small molecule agonists of the estrogen related receptor signaling pathway with the pleiotropic PPARgamma coactivator (PGC) (AID 1224823); settings: ERR/PGC reporter cell line, luciferase agonist mode; at 92.2 µM (top of the series)
Method in brief: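 In this quantitative high-throughput screen, an 18 h, 37 C treatment of PGC/ERR cells with compounds in DMSO preceded a One-Glo luminescence read taken after 30 min at room temperature.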
% is set by controls: 0 for no effect and ±100 for the full control effect.

Cc1c([N+](=O)[O-])cccc1[N+](=O)[O-]
inactive: viability change, negative = cytotoxic ([1]; at 61 µM (top of the series)) 8.8% and -7.59% | activity, negative = cytotoxic ([2]; at 61 µM (top of the series)) -5.57% and 4.1% | activity change, negative = cytotoxicity [3] 15.8% | activity, negative = cytotoxicity [4] 3.21% and -12.5% | activation [5] -5.03% and -1.65% | Potency [6] | activity change, negative = cytotoxicity [7] 5.73% and 1.42% | activity, negative = inhibition [8] -7.78% and 0.0125% | activation ([9]; at 73.3 µM (top of the series)) 0.0043% and -0.0249% | viability change, negative = cytotoxic [10] 3.89% and 0.537% | viability change, negative = cytotoxic [11] 2.41% and -0.915% | activity change, negative = cytotoxicity [12] 4.25% and -2.54%

COc1ccc([N+](=O)[O-])cc1[N+](=O)[O-]
inactive: viability change, negative = cytotoxic ([1]; at 61 µM (top of the series)) 11.9% | activity, negative = cytotoxic ([2]; at 61 µM (top of the series)) 1.16% | activity change, negative = cytotoxicity [3] 5.97% | activity, negative = cytotoxicity [4] 0.146% | activity change, negative = inhibition [13] -1.21% | activation [5] -3.24% | Potency [6] | activity change, negative = cytotoxicity [7] 3.96% | activity, negative = inhibition [8] -6.53% | activation ([9]; at 73.3 µM (top of the series)) -0.114% | viability change, negative = cytotoxic [10] 0.326% | viability change, negative = cytotoxic [11] 9.01% | activity change, negative = cytotoxicity [12] 0.542% | activity, negative = inhibition [14] 28.3%

CC(C)OP(C)(=O)OC(C)C
inactive: viability change, negative = cytotoxic ([1]; at 61 µM (top of the series)) -3.22% and 7.12% | activity, negative = cytotoxic ([2]; at 61 µM (top of the series)) 0.627% and 5.7% | activity change, negative = cytotoxicity [3] 3.28% and 4.16% | activity, negative = cytotoxicity [4] 0.287% and 4% | activity change, negative = inhibition [13] 0.0286% and -0.568% | activation [5] -5.12% and 0.597% | activity change, negative = cytotoxicity [7] -1.53% and 1.25% | activity, negative = inhibition [8] 68.3% and 5.3% | activation ([9]; at 73.3 µM (top of the series)) 0.985% and 0.676% | viability change, negative = cytotoxic [10] 1.55% | viability change, negative = cytotoxic [11] 0.941% and 1.02% | activity change, negative = cytotoxicity [12] 0.447% and 1.19%

Cc1ccc([N+](=O)[O-])c([N+](=O)[O-])c1
inactive: viability change, negative = cytotoxic ([1]; at 61 µM (top of the series)) 7.25% | viability change, negative = cytotoxic ([1]; at 78.8 µM (top of the series)) 3.02% | activity, negative = cytotoxicity [4] -10.3% and -3.91% | activity change, negative = cytotoxicity [7] 0.61% | viability change, negative = cytotoxic [10] 1.43% | viability change, negative = cytotoxic [11] -9.67% | activity change, negative = cytotoxicity [12] -8.32% | activity, negative = inhibition [14] -58.9% and 140%

[NH4+].[O-][Cl+3]([O-])([O-])[O-]
inactive: viability change, negative = cytotoxic ([1]; at 61 µM (top of the series)) -11.8% | viability change, negative = cytotoxic ([1]; at 78.8 µM (top of the series)) -2.06% | activity, negative = cytotoxic ([2]; at 61 µM (top of the series)) -5.17% | activity, negative = cytotoxic ([2]; at 78.8 µM (top of the series)) 1% | activity, negative = cytotoxicity [4] 3.3% and -1.27% | activation [5] -0.804% and 1.45% | Potency [6] | activity change, negative = cytotoxicity [7] 1.73% and 2.59% | viability change, negative = cytotoxic [10] 1.96% and 0.51% | viability change, negative = cytotoxic [11] 10% and 0.208% | activity change, negative = cytotoxicity [12] 3.13% and 1.22%

O=[N+]([O-])c1cccc([N+](=O)[O-])c1
inactive: activity, negative = cytotoxic ([2]; at 78.8 µM (top of the series)) -2.55% | activity, negative = cytotoxicity [4] -12.3% | activity change, negative = inhibition [13] 44.1% | activity change, negative = cytotoxicity [7] 4.38% | activity, negative = inhibition [8] -3.98% | activation ([9]; at 94.8 µM (top of the series)) -1.54% | viability change, negative = cytotoxic [15] 3.59% | activity change, negative = inhibition [16] 3.47% | activation [17] -5.05% | activity change, negative = inhibition [18] -4.63% | viability change, negative = cytotoxic [19] 0.782% | activation [20] -1.77% | viability change, negative = cytotoxic [10] 6.81% | viability change, negative = cytotoxic [11] -0.199% | activity change, negative = cytotoxicity [12] -6.05% | activity, negative = inhibition [14] 56.1%
